Assay outcomes from PubChem BioAssay.
SIRT5 inh – inhibitors of human sirtuin-5 desuccinylase | Q9NXA8 | Purified SirT5, succinyl-peptide AMC, trypsin-coupled fluorescence | inhibition, % at 15 µM | 330,000 tested, 1.1% active | AID 652115; in the data active = inhibition above about 15%
Yeast UUG start – modulators of start codon recognition fidelity in yeast; S. cerevisiae UUG-firefly luciferase reporter, luminescence/redox ratio; activity score, % at 18.7 µM; hit rate 0.13% among 350,000; AID 602363;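 active = replicate mean at a twofold rise or more, about +100% in these data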;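 note: firefly luciferase made from a UUG start codon reports start codon fidelity; reporter light over untreated wells divided by growth signal over untreated wells; some hits fall short of that in this replicate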
AF4-AF9 inh – MLL-AF4/AF9 protein interaction inhibition. P42568. AlphaScreen, biotin-AF4 peptide binding to FLAG-AF9. inhibition, % at 10 µM. 350,000 tested, 0.47% active;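 active = every replicate reaching a set inhibition limit, whatever the replicate mean, cut at about 25% in these data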;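 also: 0% = plate neutral control median and 100% = total signal loss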
RAD54 branch – blocks human RAD54 Holliday junction branch migration; Q92698; FAM/BHQ fluorescence; inhibition, % at 10.4 µM; 360,000 tested, 0.14% active; AID 602329;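 active = mean normalized replicate activity at least 40 and at least half of replicates scoring 40 or more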;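 also: 0% = median of neutral control wells and 100% = median of positive control wells; inhibitors cause a drop in the FAM fluorescence signal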
RAD52 inh – RAD52 (human) annealing inhibition | P43351 | recombinant RAD52 DNA annealing, FRET fluorescence | inhibition, % at 18.7 µM | 360,000 tested, 0.46% active | AID 651710;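 active = every replicate showing at least 50% inhibition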
E-selectin induc – E-selectin induction on HUVECs; P16581; HUVEC E-selectin immunofluorescence imaging; normalized: neutral wells 0, TNF-alpha wells 100; activation, % at 7.58 µM; 260,000 tested, 0.37% active; AID 686992;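 active = mean E-selectin-positive cell signal at least 10% of the positive control, reached in at least 60% of replicates, without over 20% cell loss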
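System: HUVEC / Compound: single concentration / Signal: immunofluorescence imaging / Read-out: percent E-selectin-positive cells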
* marks the source's active call; other numbers are inactive results; ! = not active in a repeat. Sampled rows, rich in hits. Any-hit rate of the full collection: about 1.8%.

Cc1ccc(S(=O)(=O)N(C)C[C@@H]2Oc3c(NC(=O)c4nc5ccccc5s4)cccc3C(=O)N([C@@H](C)CO)C[C@@H]2C)cc1 was read as SIRT5 inh 8, Yeast UUG start -16, AF4-AF9 inh 3, RAD54 branch -9, RAD52 inh -18 and E-selectin induc 1.
`C[C@@H]1CN([C@H](C)CO)C(=O)Cc2cc(NC(=O)Nc3ccc(F)cc3)ccc2O[C@@H]1CN(C)S(=O)(=O)c1ccc(F)cc1` gave SIRT5 inh 5, Yeast UUG start -3, AF4-AF9 inh 1, RAD54 branch -3, RAD52 inh 21 and E-selectin induc 1.
For COc1ccc(CNC(=O)C[C@@H]2CC[C@H]3[C@H](COc4ccc(NC(C)=O)cc4C(=O)N3C)O2)cc1 the results were SIRT5 inh 3, Yeast UUG start -7, AF4-AF9 inh 0, RAD54 branch -3, RAD52 inh -3 and E-selectin induc 0.
For CCc1nn(CCCC(=O)N2CCN(c3ccc(OC)cc3)CC2)c(=O)c2cc3occc3n12 the results were SIRT5 inh 3, AF4-AF9 inh 5, RAD52 inh -9 and E-selectin induc 141*.
CCc1nn(CCCC(=O)N2CCC(C)CC2)c(=O)c2cc3occc3n12 was read as SIRT5 inh 1, Yeast UUG start -15, AF4-AF9 inh -1, RAD54 branch -6 and RAD52 inh 0.
COC(=O)C[C@H]1CC[C@H]2[C@@H](COc3ccc(NC(=O)c4cccc(Cl)c4)cc3C(=O)N2C)O1 was read as SIRT5 inh -27, AF4-AF9 inh -1, RAD52 inh 9 and E-selectin induc 0.
Screening CSc1nc(N)nc2c1ncn2CC(=O)NCc1ccc2c(c1)OCO2 returned SIRT5 inh 21*, Yeast UUG start -18, AF4-AF9 inh -1, RAD54 branch -2, RAD52 inh 2 and E-selectin induc 1.
Screening O=C(C[C@H]1C=C[C@H](NS(=O)(=O)c2ccc(F)cc2)[C@@H](CO)O1)NC1CCCCC1 returned SIRT5 inh 0, AF4-AF9 inh 0, RAD54 branch 2, RAD52 inh 1 and E-selectin induc 0.
Cc1cccc(N/C=C(\[N+](=O)[O-])S(=O)(=O)c2ccccc2)c1 was read as SIRT5 inh 40*, AF4-AF9 inh -2, RAD52 inh -15 and E-selectin induc -3.
Screening Cn1nc(C(=O)NNC(=O)c2ccccc2Br)c2ccccc2c1=O returned SIRT5 inh 2, Yeast UUG start -16, AF4-AF9 inh -21, RAD54 branch 6, RAD52 inh -5 and E-selectin induc 237*.
For OC[C@@H]1Nc2ccc(C3=CCCCC3)cc2[C@@H]2[C@H]1CCN2Cc1nccs1 the results were SIRT5 inh -3, AF4-AF9 inh 25*, RAD52 inh -4 and E-selectin induc 1.
O=C(c1cccnc1)N1CC[C@@H]2[C@@H](CO)Nc3ccc(C4=CCCCC4)cc3[C@@H]21 was read as SIRT5 inh 17*, Yeast UUG start -8, AF4-AF9 inh 18, RAD54 branch 2, RAD52 inh -11 and E-selectin induc 0.
`C[C@H]1CN([C@@H](C)CO)C(=O)Cc2cc(NC(=O)CCCN(C)C)ccc2O[C@@H]1CN(C)S(=O)(=O)c1ccccc1` gave SIRT5 inh -2, Yeast UUG start -3, AF4-AF9 inh -5, RAD54 branch 5, RAD52 inh -1 and E-selectin induc -4.
Screening CC(C)(C)OC(=O)N1CCC[C@H]1c1nnc(SCc2cccc(Cl)c2)o1 returned SIRT5 inh 23*, AF4-AF9 inh 0 and RAD52 inh 3.
Cc1ccc(N=N/C(=C\O)C(=O)c2ccc(Cl)cc2)cc1 was read as SIRT5 inh 22*, Yeast UUG start -7, AF4-AF9 inh 3, RAD54 branch -16, RAD52 inh -16 and E-selectin induc 8.
For Cc1ccc(-c2ccc3c(c2)O[C@H](CN(C)Cc2cccnc2)[C@@H](C)CN([C@@H](C)CO)S3(=O)=O)cc1 the results were SIRT5 inh 7, Yeast UUG start -1, AF4-AF9 inh 5, RAD54 branch -8, RAD52 inh -5 and E-selectin induc 0.
COc1ccc(CN2C[C@@H](O)COC[C@@H]3O[C@H](CC(=O)NCCN4CCCC4)CC[C@H]32)cc1 was read as RAD54 branch 11 and E-selectin induc 0.
`CCCCCCCNC(=O)C1(CC2CC(c3ccccc3)=NO2)CCN(C(=O)OC(C)(C)C)CC1` (stereo not given) gave SIRT5 inh 17*, Yeast UUG start 9, AF4-AF9 inh 2, RAD54 branch -6, RAD52 inh -9 and E-selectin induc 0.
`Cc1cccc(C)c1NC(=O)CCCN1C(=O)C(c2ccccc2)Oc2cccnc21` (stereo not given) gave SIRT5 inh -2, Yeast UUG start -5, AF4-AF9 inh 1, RAD54 branch -6 and RAD52 inh -8.
For Cc1cccc(NC(=O)CCCN2C(=O)C(c3ccccc3)Oc3cccnc32)c1C (stereo not given) the results were SIRT5 inh -3, AF4-AF9 inh 2, RAD52 inh -8 and E-selectin induc 57*.
For COc1ccccc1CCNC(=O)C1CCC(=O)N(Cc2ccccc2OC)C1 (stereo not given) the results were SIRT5 inh 14, Yeast UUG start 4, AF4-AF9 inh 2, RAD54 branch -6, RAD52 inh -12 and E-selectin induc 0.
For COc1ccccc1CN1CC(C(=O)NCCCc2ccc(F)cc2)CCC1=O (stereo not given) the results were SIRT5 inh -2, Yeast UUG start 2, AF4-AF9 inh 42*, RAD54 branch -11 and RAD52 inh -12.
`COc1cccc(-c2ccc3c(c2)O[C@H](CN(C)Cc2cncnc2)[C@H](C)CN([C@H](C)CO)S3(=O)=O)c1` gave SIRT5 inh -2, Yeast UUG start -1, AF4-AF9 inh 4, RAD54 branch -6, RAD52 inh 15 and E-selectin induc 0.
Cc1ccc(-c2ccc(C3[C@@H]4CN(S(=O)(=O)c5cccc(C)c5)C[C@H]3N4)cc2)cc1 (stereo not given in full) was read as SIRT5 inh 28*, AF4-AF9 inh -3 and RAD52 inh 98*.
Screening Cc1cccc(S(=O)(=O)N2C[C@@H]3N[C@H](C2)C3c2ccc(-c3cncnc3)cc2)c1 (stereo not given in full) returned E-selectin induc 0.
For O=S(=O)(c1ccccc1)N1C[C@@H]2N[C@H](C1)C2c1ccc(-c2ccc(F)cc2)cc1 (stereo not given in full) the results were SIRT5 inh -1, AF4-AF9 inh -6, RAD52 inh 66*! and E-selectin induc 0.
Cc1ccc(S(=O)(=O)N2C[C@@H]3N[C@H](C2)[C@@H]3c2ccc(-c3cccc(C)c3)cc2)cc1 was read as E-selectin induc 0.

Retrieved by structure from the entries so far:
`C[C@@H]1CN([C@H](C)CO)C(=O)Cc2cc(NC(=O)Nc3ccc(F)cc3)ccc2O[C@@H]1CN(C)S(=O)(=O)c1ccc(F)cc1` gave SIRT5 inh 5, Yeast UUG start -3, AF4-AF9 inh 1, RAD54 branch -3, RAD52 inh 21 and E-selectin induc 1.
`Cc1cccc(C)c1NC(=O)CCCN1C(=O)C(c2ccccc2)Oc2cccnc21` (stereo not given) gave SIRT5 inh -2, Yeast UUG start -5, AF4-AF9 inh 1, RAD54 branch -6 and RAD52 inh -8.
Cc1cccc(N/C=C(\[N+](=O)[O-])S(=O)(=O)c2ccccc2)c1 was read as SIRT5 inh 40*, AF4-AF9 inh -2, RAD52 inh -15 and E-selectin induc -3.
